Values quoted from earlier work as cited in US4582827A, “Pesticidal diphenylaziridines” (priority 1983, dated 1986).

Tested on: mammals
Conditions: cited from earlier work

For `C1CN1`, the “toxicity reported in the literature” value is listed as “highly toxic and hazardous”.
